Measurements: patent publication US9453014B2, “Cyclic amide derivatives as inhibitors of 11-β-hydroxysteroid dehydrogenase and uses thereof” (CONNEXIOS LIFE SCIENCES PVT. LTD., priority 2011, dated 2016)

Amino acid sequences for entries named in this document (tags omitted).
UniProt P28845, whole entry: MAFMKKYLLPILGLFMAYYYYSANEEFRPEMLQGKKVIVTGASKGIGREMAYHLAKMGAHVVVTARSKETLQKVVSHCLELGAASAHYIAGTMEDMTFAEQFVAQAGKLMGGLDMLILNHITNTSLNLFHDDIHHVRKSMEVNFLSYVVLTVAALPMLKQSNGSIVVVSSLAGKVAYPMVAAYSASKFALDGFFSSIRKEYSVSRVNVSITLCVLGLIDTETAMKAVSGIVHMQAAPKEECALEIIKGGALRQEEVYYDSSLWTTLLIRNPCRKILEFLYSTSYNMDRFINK

Molecular target: human full length HSD11 β 1 (Homo sapiens, UniProt P28845)
Assay: In Vitro HSD11β1 Inhibition Assay
Conditions: read-out: 11βHSD1 (IC50); CHO cells transiently expressing human HSD11β1; 200 nM cortisone+500 uM NADPH overnight; cortisone to cortisol by LC/MS-MS

| SMILES | IC50 [nM] |
| --- | --- |
| O=C(O)C1CCN(C(=O)CC(c2ccccc2)c2c[nH]c3cccc(F)c23)C2CCCCC12 (centres unmarked) | 100 to 150 |
| O=C(O)C1CCN(C(=O)CC(c2ccccc2)c2c[nH]c3cc(F)ccc23)C2CCCCC12 (centres unmarked) | 100 to 150 |
